According to BindingDB's records for doi:10.1006/jmbi.2001.4516 (Axys Pharmaceuticals, 2001):

Biological target: T1, Serine protease 1 (Bos taurus, UniProt P00760)
T1 sequence (P00760 whole entry): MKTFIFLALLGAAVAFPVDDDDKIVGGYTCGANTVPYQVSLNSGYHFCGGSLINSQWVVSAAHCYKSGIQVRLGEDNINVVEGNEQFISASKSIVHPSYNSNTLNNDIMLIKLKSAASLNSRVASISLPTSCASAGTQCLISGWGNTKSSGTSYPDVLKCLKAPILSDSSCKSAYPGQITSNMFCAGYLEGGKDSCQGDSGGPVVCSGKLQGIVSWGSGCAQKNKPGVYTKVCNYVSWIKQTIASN
Test: Enzyme Assay and Determination of the Inhibition Constants
Details: 22 °C
Protocol: Each enzyme was assayed with a set of different concentrations of each inhibitor. […] Ki(apparent) values were calculated from enzyme velocity curves using the software package BatchKi (BioKin Ltd, Madison, WI). These apparent inhibition constants were then converted to Ki values by assuming competitive inhibition and using the formula Ki = Ki(apparent)/(1 + S/Km).

N=C(N)c1ccc2nc(-c3ncccc3O)[nH]c2c1 [2-(3-HYDROXY-PYRIDIN-2-YL)-1H-BENZOIMIDAZOLE-5-CARBOXAMIDINE]
Ki (pH 7.2): 1900 nM
Ki (pH 8): 43 nM
